Reference: BindingDB's records for doi:10.1038/305140a0 (College of France, 1983)

Amino acid sequences for entries named in this document (tags omitted).
UniProt P19327, whole entry: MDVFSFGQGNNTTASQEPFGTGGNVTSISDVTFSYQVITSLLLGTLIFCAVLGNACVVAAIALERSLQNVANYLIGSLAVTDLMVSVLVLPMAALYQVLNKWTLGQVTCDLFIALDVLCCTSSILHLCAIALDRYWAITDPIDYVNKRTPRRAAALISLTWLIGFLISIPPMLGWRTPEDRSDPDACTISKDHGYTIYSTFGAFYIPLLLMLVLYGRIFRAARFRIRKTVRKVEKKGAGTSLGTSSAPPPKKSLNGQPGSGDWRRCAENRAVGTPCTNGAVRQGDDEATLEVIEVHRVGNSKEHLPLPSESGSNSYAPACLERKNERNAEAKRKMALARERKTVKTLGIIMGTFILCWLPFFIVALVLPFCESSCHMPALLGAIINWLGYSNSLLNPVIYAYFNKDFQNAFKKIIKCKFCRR

Target: 5-hydroxytryptamine receptor 1A (Rattus norvegicus, UniProt P19327)

| Structure (SMILES) | Ki [nM] |
| --- | --- |
| COc1ccc2[nH]cc(C3=CCNCC3)c2c1 [5-Methoxy-3-(1,2,3,6-tetrahydro-pyridin-4-yl)-1H-indole(RU-24969)] | 9.77 |
| NCCc1c[nH]c2ccc(O)cc12 [[3H]-5-HT] | 46.8 |
